Data: patent US20050148661A1 (priority 2002, published 2005)

Assay: clinical study: prevention of the neurotoxicity of oxaliplatin by calcium and magnesium infusion (103 treatments)
Conditions: group of patients without calcium or magnesium

N[C@@H]1CCCC[C@H]1N.O=C([O-])C(=O)[O-].[Pt+2] (relative stereo) [oxaliplatin, 1,2-diamine cyclohexane (trans-1)oxalatoplatinum]
discontinuations due to toxic causes: 40%
